How the values were obtained:
[1] = test system: EGFR-overexpressing solid tumors; assay: Phase I study CC1 of C225-ILs-dox, dose escalation; assay type: in vivo, human
HT-29 RDB = assay: Cytotoxicity study, MTT staining; assay type: cell-based, human
Procedure: (§1) Specific cytotoxicity of EGFR-targeted immunoliposomes containing doxorubicin was evaluated in target cells plated at a density of 8,000 cells per well in 96-well plates and allowed to grow overnight. Immunoliposomes or control treatments were applied for 2 h at 37° C., followed by washing with PBS and re-adding growth media. Cells were further incubated at 37 DC for 3 days and analyzed for cell viability using 3-(4,5-dimethylthiazol-2-yl)-2,5-diphenyl tetrazolium bromide (MTT) staining (41). For the cytotoxicity studies using the efflux pump inhibitor verapamil, this compound was added to the media at a concentration of 100 μM during the complete experiment.

HT-29 WT = assay: Cytotoxicity study, MTT staining; assay type: cell-based, human; details: Table 2
Procedure: as §1

MDA-MB-231 Vb100 = assay: Cytotoxicity study, MTT staining; assay type: cell-based, human; details: highly drug resistant cell line
Procedure: as §1

MCF-7 cells = assay: Cytotoxicity study, MTT staining; assay type: cell-based; details: cells lack the EGF receptor, negative control; data not shown
Procedure: as §1

[2] = test system: MDA-MB-231 wild type xenograft; assay: Tumor xenograft model, wild type; assay type: in vivo
Procedure: (§2) Efficacy for non-targeted liposomes versus anti-EGFR immunoliposomes were studied in the MDA-MB-231 wild type and resistant breast cancer xenograft tumor model. Swiss nu/nu mice (5-6 weeks; Charles River, France) were injected subcutaneously (s.c.) with EGFR-overexpressing MDA-MB-231 tumor cells (1×10^7 cells, wild type or resistant) into the back of the animal. […] Free drug was injected on the same schedule as liposomes or immunoliposomes intravenously at their MTD of 30 mg dox/kg for doxorubicin. In control groups, saline was administered intravenously at the same injection volume and schedule.
(§3) Tumor growth was monitored for a period of 55-100 days post tumor implantation. Mice were weighted and examined for toxicity three times a week. Tumor measurements were performed 2-3 times weekly using a caliper, and tumor volumes were calculated using the equation: (length × width^2)/2.
In the wild-type MDA-MB-231 xenograft model lacking mdr features, anti-EGFR immunoliposome-dox was administered i.v. at a total dose of 30 mg dox/kg divided into three weekly doses of 10 mg/kg. […] Control treatments included: saline; free doxorubicin and non-targeted liposomal doxorubicin (commercial pegylated liposomal doxorubicin; PLD) at the same dose and schedule as immunoliposomes.
In addition, a multivariate (rank) test was performed based on the sums of ranks for each mouse. […]

[3] = test system: MDA-MB-231 Vb100 xenograft; assay: Tumor xenograft model, multi-drug resistant; assay type: in vivo; details: i.v. 10 mg doxorubicin/kg once weekly for 3 weeks, total 30 mg dox/kg; compared to saline
Procedure: as §2, §3
Comparators included saline, free doxorubicin and non-targeted liposomal doxorubicin (commercial pegylated liposomal doxorubicin; PLD) at the same dose and schedule as immunoliposomes.
In addition, a multivariate (rank) test was performed based on the sums of ranks for each mouse. Tumor size at each time point after last treatment was ranked across all mice for that day and the ranks were summed. The sum of the ranks was compared in each case for two treatments by a 2-sample t-test (42).

C225-ILs-dox
Grade ¾ Toxicity ([1]; 5 mg per m2 (as doxorubicin), r7 Pat.1 prostate 2 cycles, r8 Pat.2 pancreatic 2 cycles, r9 Pat.3 renal cell 2 cycles): none
Grade ¾ Toxicity ([1]; 10 mg per m2, r10 Pat.4 pancreatic 1 cycle, r11 Pat.5 esophageal 3 cycles, r12 Pat.6 colorectal 6 cycles): none
Grade ¾ Toxicity ([1]; 20 mg per m2, r13 Pat.7 colorectal 2 cycles, r14 Pat.8 pancreatic 1 cycle, r15 Pat.9 head and neck 4 cycles): none
Grade ¾ Toxicity ([1]; 30 mg per m2, r17 Pat.10 mesothelioma 6 cycles, r18 Pat.11 prostate 2 cycles, r19 Pat.12 pancreatic 2 cycles): none
Grade ¾ Toxicity ([1]; 40 mg per m2, r20 Pat.13 bladder 2 cycles, r21 Pat.14 bladder 6 cycles, r22 Pat.15 renal cell 1 cycle): none
Efficacy (best response) ([1]; 40 mg per m2, r20 Pat.13 bladder, r21 Pat.14 bladder, RECIST): SD (MR)
Grade ¾ Toxicity ([1]; 50 mg per m2, r23 Pat.16 hepatocellular 2 cycles, cell wraps: Neutropenia Grade 3 (r23-r24)): Neutropenia
skin toxicity ([1]; all 16 patients treated so far, 5-50 mg per m2): no skin toxicity
palmar plantar erythema ([1]; at even the higher doses): no palmar plantar erythema
signals of efficacy ([1]; even at the lowest dose used): clear signals of efficacy
drug-related toxic effects ([1]; up to a concentration of 50 mg/m^2): no or very little drug-related toxic effects
C225-ILs-dox vs. free dox (HT-29 RDB; HT-29 RDB, Table 2): 19 - fold
superiority of immunoliposomal delivery over the free drug (HT-29 RDB; ratio of IC50): 19 fold
C225-ILs-dox vs. free dox (HT-29 WT): 1.2 - fold
greater cytotoxicity than free dox (MDA-MB-231 Vb100): 216 fold
effects (cytotoxicity) (MCF-7 cells): no effects
tumor regrowth during follow-up ([2]; after day 77 until end of observation (day 100)): did not show growth activity
antitumor effect (tumor growth) ([2]; i.v. 10 mg doxorubicin/kg once weekly for 3 weeks, total 30 mg dox/kg, compared to saline): substantial tumor regressions
antitumor effect (tumor growth) [3]: substantial tumor regressions

Source: US20100239652A1, “IMMUNOLIPOSOMES FOR TREATMENT OF CANCER” (UNIVERSITATSSPITAL BASEL, priority 2008, published 2010)
